# According to patent US7271168B2, “Piperazine derivatives having SST1 antagonistic activity” (Novartis AG, priority 2001, dated 2007):
# Chains of the proteins cited; added tags and fusions are not shown. Lines headed by an entry give the natural chain unless they say otherwise; changes in a name come on top.
# UniProt P30872: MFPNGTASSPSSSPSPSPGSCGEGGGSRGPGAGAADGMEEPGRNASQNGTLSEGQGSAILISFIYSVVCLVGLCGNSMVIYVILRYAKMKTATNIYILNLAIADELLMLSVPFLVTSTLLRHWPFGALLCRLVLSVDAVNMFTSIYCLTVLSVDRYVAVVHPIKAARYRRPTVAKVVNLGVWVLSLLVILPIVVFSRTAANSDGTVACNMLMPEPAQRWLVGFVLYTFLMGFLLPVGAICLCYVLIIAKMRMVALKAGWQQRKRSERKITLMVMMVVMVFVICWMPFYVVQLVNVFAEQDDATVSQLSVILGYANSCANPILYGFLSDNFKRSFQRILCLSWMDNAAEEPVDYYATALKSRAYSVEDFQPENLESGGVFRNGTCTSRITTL
# Biological target: Somatostatin sst1 receptors (Homo sapiens, UniProt P30872)
smiles,measurement,value
"CN(CCC(=O)N1CCN(c2ccc(F)c(F)c2)CC1)CCC1c2ccccc2Oc2ccccc21 [Compound A, 1-[4-(3,4-difluoro-phenyl)-piperazin-1-yl]-3-{methyl-[2-(9H-xanthen-9-yl)-ethyl]-amino}-propan-1-one]",selectivity among somatostatin receptors,sst1 selective
